From patent US11766432B2, “Cleavable conjugates of catechol compounds and water-soluble polymers and methods of treatment using the same” (SERINA THERAPEUTICS, INC., priority 2018, dated 2023)
Read-outs that look alike come from different tables or passages of the source.

Legend:
[1] = Pharmacokinetics of free apomorphine in plasma after single SC infusion/injection; conditions: female monkeys, mean n=3; for t1/2z: single SC 1.5 mg/kg (apomorphine equivalents); for CL/Fobs / Vz/Fobs: single SC 1.5 mg/kg
[2] = total apomorphine, plasma, mean; for t1/2z: female monkeys, single SC injection 1.5 mg/kg (apomorphine equivalents)

POZ10p20k[Apo(4-butanoate)(4-triazolebutanoate)]10 [POZ-Apomorphine A]
t1/2z [1]: 22.5 h | CL/Fobs [1]: 2,272 ml/h/kg | Vz/Fobs [1]: 73,896 ml/kg | t1/2z [2]: 20.9 h

POZ10p20k[Apo(2-methylpropanoate)(4-triazolebutanoate)]10 [POZ-Apomorphine B]
t1/2z [1]: 143.4 h | CL/Fobs [1]: 1,638 ml/h/kg | Vz/Fobs [1]: 313,446 ml/kg | t1/2z [2]: 106.9 h | Tmax ([2]; single SC injection 1.5 mg/kg, 1.5 mg/kg): 107 h
